Source: ChEMBL document CHEMBL2218924, “A broad activity screen in support of a chemogenomic map for kinase signalling research and drug discovery” (Biochem J, 2013)
For some assays here: Shown are results outside the selection of strong results, which stands elsewhere. No rule for the calls is given here. The list shows a part of the results, in another mix than the full data.

Sequences of proteins named here, by UniProt entry; tags and fusion partners are left off. A change or cut given only in a name is not applied to a line headed by its entry.
UniProt P78362, whole entry, looked up: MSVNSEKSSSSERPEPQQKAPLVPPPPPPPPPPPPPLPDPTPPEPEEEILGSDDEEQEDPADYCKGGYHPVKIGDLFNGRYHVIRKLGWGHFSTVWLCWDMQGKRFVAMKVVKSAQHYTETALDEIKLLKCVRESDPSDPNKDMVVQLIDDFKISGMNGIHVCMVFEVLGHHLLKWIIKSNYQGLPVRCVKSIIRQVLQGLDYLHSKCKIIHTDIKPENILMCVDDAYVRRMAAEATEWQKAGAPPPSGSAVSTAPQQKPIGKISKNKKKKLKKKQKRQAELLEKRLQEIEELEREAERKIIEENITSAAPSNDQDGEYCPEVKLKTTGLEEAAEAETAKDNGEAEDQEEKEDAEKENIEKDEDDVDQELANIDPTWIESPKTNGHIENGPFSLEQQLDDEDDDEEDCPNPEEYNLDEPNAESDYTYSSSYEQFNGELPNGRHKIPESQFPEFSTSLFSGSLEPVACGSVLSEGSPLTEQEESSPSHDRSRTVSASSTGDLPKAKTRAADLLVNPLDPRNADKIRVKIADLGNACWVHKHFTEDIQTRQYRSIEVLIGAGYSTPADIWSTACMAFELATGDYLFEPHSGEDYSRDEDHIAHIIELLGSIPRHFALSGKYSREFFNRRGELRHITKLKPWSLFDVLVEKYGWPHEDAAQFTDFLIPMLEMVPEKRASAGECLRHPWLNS
UniProt O75582, whole entry, looked up: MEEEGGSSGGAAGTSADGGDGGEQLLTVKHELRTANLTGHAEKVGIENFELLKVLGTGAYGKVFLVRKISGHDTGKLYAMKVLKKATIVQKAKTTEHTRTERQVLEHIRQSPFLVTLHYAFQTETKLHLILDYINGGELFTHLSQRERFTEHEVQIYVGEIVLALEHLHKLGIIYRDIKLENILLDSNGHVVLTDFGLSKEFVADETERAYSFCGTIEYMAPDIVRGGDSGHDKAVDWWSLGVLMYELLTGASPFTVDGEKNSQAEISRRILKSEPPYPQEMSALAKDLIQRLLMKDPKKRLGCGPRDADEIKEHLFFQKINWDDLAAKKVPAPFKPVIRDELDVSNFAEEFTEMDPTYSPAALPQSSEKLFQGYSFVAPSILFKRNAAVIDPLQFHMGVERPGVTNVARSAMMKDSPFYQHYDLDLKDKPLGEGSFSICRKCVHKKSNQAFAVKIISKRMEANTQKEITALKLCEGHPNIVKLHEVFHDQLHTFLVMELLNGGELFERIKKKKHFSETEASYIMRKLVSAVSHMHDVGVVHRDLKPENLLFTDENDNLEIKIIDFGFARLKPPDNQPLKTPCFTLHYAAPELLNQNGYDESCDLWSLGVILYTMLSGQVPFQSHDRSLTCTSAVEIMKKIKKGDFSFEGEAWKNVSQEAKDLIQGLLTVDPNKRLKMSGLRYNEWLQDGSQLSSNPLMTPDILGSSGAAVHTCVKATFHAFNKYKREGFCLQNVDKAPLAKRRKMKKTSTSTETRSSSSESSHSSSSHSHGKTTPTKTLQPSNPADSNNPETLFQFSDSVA
UniProt Q8NG66: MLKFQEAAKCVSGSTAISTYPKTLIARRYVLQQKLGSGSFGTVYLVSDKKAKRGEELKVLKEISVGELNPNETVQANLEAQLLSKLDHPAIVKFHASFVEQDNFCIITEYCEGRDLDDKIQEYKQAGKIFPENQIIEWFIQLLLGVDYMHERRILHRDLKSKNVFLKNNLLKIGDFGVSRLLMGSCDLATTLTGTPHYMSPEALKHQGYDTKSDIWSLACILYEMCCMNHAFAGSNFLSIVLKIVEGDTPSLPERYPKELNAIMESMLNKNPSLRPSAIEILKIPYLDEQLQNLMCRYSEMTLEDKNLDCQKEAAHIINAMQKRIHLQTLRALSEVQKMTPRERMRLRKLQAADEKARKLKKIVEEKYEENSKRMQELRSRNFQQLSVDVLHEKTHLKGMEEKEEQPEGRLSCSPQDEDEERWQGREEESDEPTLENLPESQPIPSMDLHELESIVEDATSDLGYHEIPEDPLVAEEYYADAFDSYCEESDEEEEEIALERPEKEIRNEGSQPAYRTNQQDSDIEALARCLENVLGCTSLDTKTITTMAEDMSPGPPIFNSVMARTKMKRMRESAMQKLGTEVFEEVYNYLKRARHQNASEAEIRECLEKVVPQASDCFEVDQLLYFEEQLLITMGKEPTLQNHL
UniProt P04629: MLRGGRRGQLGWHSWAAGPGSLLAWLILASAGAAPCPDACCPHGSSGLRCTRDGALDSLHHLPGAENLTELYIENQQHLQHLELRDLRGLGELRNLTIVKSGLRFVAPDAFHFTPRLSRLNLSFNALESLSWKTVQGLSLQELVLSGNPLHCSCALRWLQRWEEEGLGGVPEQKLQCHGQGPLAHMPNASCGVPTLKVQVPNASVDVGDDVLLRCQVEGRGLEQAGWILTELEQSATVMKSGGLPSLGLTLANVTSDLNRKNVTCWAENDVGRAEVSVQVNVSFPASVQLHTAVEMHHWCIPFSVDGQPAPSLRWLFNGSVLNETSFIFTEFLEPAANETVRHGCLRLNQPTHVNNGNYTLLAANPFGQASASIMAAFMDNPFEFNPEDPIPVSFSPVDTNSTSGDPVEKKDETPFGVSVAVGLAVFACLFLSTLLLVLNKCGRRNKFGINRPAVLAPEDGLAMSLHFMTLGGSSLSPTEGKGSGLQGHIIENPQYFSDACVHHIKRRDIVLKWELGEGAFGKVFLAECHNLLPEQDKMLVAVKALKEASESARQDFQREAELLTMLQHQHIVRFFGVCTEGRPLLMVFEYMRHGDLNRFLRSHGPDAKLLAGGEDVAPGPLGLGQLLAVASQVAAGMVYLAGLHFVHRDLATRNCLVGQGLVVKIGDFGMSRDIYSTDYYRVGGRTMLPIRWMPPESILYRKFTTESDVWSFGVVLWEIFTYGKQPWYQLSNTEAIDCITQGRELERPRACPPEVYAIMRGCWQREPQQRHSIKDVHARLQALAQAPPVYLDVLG
UniProt Q96RG2: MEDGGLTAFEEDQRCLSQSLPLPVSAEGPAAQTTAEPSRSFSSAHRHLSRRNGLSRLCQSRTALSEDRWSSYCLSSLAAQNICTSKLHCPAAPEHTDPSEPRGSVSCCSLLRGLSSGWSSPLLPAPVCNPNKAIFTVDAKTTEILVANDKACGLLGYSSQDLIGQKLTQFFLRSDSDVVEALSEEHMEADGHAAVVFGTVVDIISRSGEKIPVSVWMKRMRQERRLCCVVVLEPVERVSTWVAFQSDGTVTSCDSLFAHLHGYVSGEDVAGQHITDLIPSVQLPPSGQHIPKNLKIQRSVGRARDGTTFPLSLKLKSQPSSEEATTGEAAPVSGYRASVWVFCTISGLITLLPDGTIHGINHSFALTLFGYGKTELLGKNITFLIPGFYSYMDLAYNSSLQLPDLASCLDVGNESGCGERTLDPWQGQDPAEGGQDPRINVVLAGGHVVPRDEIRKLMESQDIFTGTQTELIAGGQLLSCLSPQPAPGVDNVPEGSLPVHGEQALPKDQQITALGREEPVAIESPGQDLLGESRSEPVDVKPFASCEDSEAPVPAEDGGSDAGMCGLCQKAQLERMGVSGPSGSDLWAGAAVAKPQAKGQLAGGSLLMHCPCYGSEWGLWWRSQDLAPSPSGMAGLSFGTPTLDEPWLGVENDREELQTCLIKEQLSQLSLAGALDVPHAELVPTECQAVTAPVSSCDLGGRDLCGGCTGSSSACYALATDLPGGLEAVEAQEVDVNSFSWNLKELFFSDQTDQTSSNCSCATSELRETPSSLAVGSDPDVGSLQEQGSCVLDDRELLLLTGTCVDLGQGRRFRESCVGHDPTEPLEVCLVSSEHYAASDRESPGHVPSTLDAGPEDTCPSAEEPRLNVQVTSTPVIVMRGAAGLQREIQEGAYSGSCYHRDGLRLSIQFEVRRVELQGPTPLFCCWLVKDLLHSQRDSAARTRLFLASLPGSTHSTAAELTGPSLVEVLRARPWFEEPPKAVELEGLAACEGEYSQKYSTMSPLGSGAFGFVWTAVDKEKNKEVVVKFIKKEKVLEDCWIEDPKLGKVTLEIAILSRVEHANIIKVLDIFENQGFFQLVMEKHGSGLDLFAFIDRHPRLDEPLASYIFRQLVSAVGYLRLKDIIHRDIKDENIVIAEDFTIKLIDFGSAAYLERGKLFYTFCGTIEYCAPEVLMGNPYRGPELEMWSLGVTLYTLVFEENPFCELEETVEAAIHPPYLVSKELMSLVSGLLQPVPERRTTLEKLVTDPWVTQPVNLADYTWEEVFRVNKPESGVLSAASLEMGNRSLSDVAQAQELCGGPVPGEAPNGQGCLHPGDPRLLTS
UniProt Q9UM73: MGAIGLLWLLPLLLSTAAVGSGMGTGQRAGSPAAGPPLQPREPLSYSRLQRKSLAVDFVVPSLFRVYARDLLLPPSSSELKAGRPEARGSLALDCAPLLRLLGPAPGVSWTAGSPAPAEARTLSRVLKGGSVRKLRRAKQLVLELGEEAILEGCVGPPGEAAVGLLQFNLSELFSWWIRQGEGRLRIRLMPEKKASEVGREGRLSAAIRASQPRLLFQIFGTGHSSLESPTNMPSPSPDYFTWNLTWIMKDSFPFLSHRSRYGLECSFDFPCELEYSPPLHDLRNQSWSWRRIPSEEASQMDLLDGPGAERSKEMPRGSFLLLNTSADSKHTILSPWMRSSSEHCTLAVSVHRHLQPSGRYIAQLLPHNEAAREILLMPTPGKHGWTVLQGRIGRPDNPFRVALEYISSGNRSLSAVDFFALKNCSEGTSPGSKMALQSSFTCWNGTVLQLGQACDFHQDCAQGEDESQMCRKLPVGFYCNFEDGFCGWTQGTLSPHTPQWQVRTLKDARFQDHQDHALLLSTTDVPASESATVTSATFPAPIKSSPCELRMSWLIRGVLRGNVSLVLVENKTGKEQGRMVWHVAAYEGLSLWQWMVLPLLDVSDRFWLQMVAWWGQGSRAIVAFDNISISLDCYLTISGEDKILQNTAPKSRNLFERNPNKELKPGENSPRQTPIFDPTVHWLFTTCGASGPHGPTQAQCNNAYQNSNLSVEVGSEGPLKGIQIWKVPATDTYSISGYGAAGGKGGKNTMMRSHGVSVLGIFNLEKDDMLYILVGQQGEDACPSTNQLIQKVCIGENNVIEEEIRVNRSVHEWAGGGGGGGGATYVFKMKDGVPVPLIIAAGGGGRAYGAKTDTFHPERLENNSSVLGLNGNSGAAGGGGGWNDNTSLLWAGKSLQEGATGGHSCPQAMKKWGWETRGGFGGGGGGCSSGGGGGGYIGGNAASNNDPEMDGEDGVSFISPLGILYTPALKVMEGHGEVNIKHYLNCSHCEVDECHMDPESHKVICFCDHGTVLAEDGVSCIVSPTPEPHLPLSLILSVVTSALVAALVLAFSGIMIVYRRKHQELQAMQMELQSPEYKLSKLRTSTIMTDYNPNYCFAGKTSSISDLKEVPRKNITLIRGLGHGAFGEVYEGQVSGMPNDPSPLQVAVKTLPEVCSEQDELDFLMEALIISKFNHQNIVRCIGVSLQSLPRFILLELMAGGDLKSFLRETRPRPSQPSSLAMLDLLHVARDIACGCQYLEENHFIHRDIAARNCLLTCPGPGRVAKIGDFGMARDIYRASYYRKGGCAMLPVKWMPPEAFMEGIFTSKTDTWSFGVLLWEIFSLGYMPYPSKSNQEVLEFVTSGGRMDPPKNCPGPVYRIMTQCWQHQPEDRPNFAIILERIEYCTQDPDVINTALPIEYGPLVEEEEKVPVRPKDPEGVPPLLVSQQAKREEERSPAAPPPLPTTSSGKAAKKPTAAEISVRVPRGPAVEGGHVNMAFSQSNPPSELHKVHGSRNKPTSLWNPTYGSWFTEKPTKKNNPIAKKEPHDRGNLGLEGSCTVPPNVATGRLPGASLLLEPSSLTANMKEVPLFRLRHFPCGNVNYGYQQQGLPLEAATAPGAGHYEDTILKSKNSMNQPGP
UniProt Q05655: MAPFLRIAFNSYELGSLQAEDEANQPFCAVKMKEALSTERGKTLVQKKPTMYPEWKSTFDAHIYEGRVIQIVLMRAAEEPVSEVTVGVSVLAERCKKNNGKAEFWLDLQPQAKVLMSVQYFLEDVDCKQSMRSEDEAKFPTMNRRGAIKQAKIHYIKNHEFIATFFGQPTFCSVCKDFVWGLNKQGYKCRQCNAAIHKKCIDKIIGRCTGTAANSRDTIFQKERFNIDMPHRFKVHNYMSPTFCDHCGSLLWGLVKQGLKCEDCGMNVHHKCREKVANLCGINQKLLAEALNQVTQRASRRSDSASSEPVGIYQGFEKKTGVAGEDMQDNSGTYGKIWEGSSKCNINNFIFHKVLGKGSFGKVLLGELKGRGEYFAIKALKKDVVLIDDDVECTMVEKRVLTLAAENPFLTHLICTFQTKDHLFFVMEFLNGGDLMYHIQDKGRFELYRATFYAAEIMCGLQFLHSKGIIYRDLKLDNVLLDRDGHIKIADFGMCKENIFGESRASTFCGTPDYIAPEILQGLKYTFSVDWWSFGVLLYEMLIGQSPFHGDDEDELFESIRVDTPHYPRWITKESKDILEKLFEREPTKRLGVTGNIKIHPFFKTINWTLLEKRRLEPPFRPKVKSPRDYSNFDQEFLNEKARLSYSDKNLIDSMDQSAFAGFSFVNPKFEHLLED

Legend:
[1] = biological target: Receptor-interacting serine/threonine-protein kinase 2 (Homo sapiens) (UniProt O43353); details: at 10 µM;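 also: residual kinase activity of the enzyme remaining, given as percent of control, assayed in 8 mM MOPS pH 7.0 buffer with 0.2 mM EDTA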
[2] = biological target: Rho-associated protein kinase 2 (Homo sapiens) (UniProt O75116); details: at 10 µM
[3] = biological target: Macrophage-stimulating protein receptor (Homo sapiens) (UniProt Q04912); details: at 1 µM
[4] = biological target: Ribosomal protein S6 kinase alpha-6 (Homo sapiens) (UniProt Q9UK32); details: at 1 µM
[5] = biological target: Serine/threonine-protein kinase Sgk3 (Homo sapiens) (UniProt Q96BR1); details: at 1 µM
[6] = biological target: Serine/threonine-protein kinase Sgk3 (Homo sapiens) (UniProt Q96BR1); details: at 10 µM
[7] = biological target: Serine/threonine-protein kinase SIK1 (Homo sapiens) (UniProt P57059); details: at 10 µM
[8] = biological target: SRSF protein kinase 2 (Homo sapiens) (UniProt P78362); details: at 1 µM
[9] = biological target: Mitogen-activated protein kinase kinase kinase 7 (Homo sapiens) (UniProt O43318); details: at 10 µM
[10] = biological target: Serine/threonine-protein kinase TAO1 (Homo sapiens) (UniProt Q7L7X3); details: at 10 µM
[11] = biological target: Serine/threonine-protein kinase TAO3 (Homo sapiens) (UniProt Q9H2K8); details: at 1 µM
[12] = biological target: Serine/threonine-protein kinase TAO3 (Homo sapiens) (UniProt Q9H2K8); details: at 10 µM
[13] = biological target: Serine/threonine-protein kinase TBK1 (Homo sapiens) (UniProt Q9UHD2); details: at 1 µM
[14] = biological target: TGF-beta receptor type-1 (Homo sapiens) (UniProt P36897); details: at 1 µM
[15] = biological target: Insulin-like growth factor 1 receptor (Homo sapiens) (UniProt P08069); details: at 10 µM
[16] = biological target: Inhibitor of nuclear factor kappa-B kinase subunit alpha (Homo sapiens) (UniProt O15111); details: at 1 µM
[17] = biological target: Inhibitor of nuclear factor kappa-B kinase subunit alpha (Homo sapiens) (UniProt O15111); details: at 10 µM
[18] = biological target: Insulin receptor-related protein (Homo sapiens) (UniProt P14616); details: at 10 µM
[19] = biological target: Tyrosine-protein kinase ITK/TSK (Homo sapiens) (UniProt Q08881); details: at 10 µM
[20] = biological target: Tyrosine-protein kinase JAK2 (Homo sapiens) (UniProt O60674); details: at 10 µM
[21] = biological target: Tyrosine-protein kinase JAK3 (Homo sapiens) (UniProt P52333); details: at 10 µM
[22] = biological target: LIM domain kinase 1 (Homo sapiens) (UniProt P53667); details: at 10 µM
[23] = biological target: Serine/threonine-protein kinase 10 (Homo sapiens) (UniProt O94804); details: at 10 µM
[24] = biological target: Tyrosine-protein kinase Lck (Homo sapiens) (UniProt P06239); details: at 10 µM
[25] = biological target: Tyrosine-protein kinase Lyn (Homo sapiens) (UniProt P07948); details: at 1 µM
[26] = biological target: Mitogen-activated protein kinase 3 (Homo sapiens) (UniProt P27361); details: at 10 µM
[27] = biological target: Mitogen-activated protein kinase 1 (Homo sapiens) (UniProt P28482); details: at 10 µM
[28] = biological target: MAP kinase-activated protein kinase 2 (Homo sapiens) (UniProt P49137); details: at 10 µM
[29] = biological target: Dual specificity mitogen-activated protein kinase kinase 1 (Homo sapiens) (UniProt Q02750); details: at 1 µM
[30] = biological target: Dual specificity mitogen-activated protein kinase kinase 6 (Homo sapiens) (UniProt P52564); details: at 1 µM
[31] = biological target: Serine/threonine-protein kinase MRCK beta (Homo sapiens) (UniProt Q9Y5S2); details: at 10 µM
[32] = biological target: Ribosomal protein S6 kinase alpha-5 (Homo sapiens) (UniProt O75582); details: at 10 µM
[33] = biological target: Serine/threonine-protein kinase 3 (Homo sapiens) (UniProt Q13188); details: at 10 µM
[34] = biological target: Serine/threonine-protein kinase 24 (Homo sapiens) (UniProt Q9Y6E0); details: at 10 µM
[35] = biological target: Serine/threonine-protein kinase Nek11 (Homo sapiens) (UniProt Q8NG66); details: at 1 µM
[36] = biological target: Serine/threonine-protein kinase Nek2 (Homo sapiens) (UniProt P51955); details: at 1 µM
[37] = biological target: Serine/threonine-protein kinase Nek2 (Homo sapiens) (UniProt P51955); details: at 10 µM
[38] = biological target: Serine/threonine-protein kinase tousled-like 2 (Homo sapiens) (UniProt Q86UE8); details: at 10 µM
[39] = biological target: Testis-specific serine/threonine-protein kinase 1 (Homo sapiens) (UniProt Q9BXA7); details: at 10 µM
[40] = biological target: Testis-specific serine/threonine-protein kinase 2 (Homo sapiens) (UniProt Q96PF2); details: at 1 µM
[41] = biological target: Testis-specific serine/threonine-protein kinase 2 (Homo sapiens) (UniProt Q96PF2); details: at 10 µM
[42] = biological target: Tyrosine-protein kinase Tec (Homo sapiens) (UniProt P42680); details: at 1 µM
[43] = biological target: High affinity nerve growth factor receptor (Homo sapiens) (UniProt P04629); details: at 1 µM
[44] = biological target: Serine/threonine-protein kinase ULK3 (Homo sapiens) (UniProt Q6PHR2); details: at 10 µM
[45] = biological target: Death-associated protein kinase 3 (Homo sapiens) (UniProt O43293); details: at 1 µM
[46] = biological target: Mast/stem cell growth factor receptor Kit (Homo sapiens) (UniProt P10721); details: at 10 µM
[47] = biological target: Serine/threonine-protein kinase mTOR (Homo sapiens) (UniProt P42345); details: at 10 µM
[48] = biological target: Serine/threonine-protein kinase mTOR (Homo sapiens) (UniProt P42345); details: at 1 µM
[49] = biological target: Serine/threonine-protein kinase mTOR (Homo sapiens) (UniProt P42345); details: at 10 µM; remark: listed apart in the source
[50] = biological target: T1, Serine/threonine-protein kinase Nek6 (Homo sapiens) (UniProt Q9HC98); details: at 1 µM
T1 sequence (whole entry): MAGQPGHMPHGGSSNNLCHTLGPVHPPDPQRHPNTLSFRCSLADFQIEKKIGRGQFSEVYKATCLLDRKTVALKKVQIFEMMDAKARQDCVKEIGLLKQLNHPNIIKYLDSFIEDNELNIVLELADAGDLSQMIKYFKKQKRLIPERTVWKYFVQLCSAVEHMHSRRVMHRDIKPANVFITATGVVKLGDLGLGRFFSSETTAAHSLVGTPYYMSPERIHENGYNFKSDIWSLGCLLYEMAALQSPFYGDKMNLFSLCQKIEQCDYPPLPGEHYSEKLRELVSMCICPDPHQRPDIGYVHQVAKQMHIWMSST

[51] = biological target: Serine/threonine-protein kinase NLK (Homo sapiens) (UniProt Q9UBE8); details: at 10 µM
[52] = biological target: Serine/threonine-protein kinase PAK 4 (Homo sapiens) (UniProt O96013); details: at 1 µM
[53] = biological target: PAS domain-containing serine/threonine-protein kinase (Homo sapiens) (UniProt Q96RG2); details: at 1 µM
[54] = biological target: ALK tyrosine kinase receptor (Homo sapiens) (UniProt Q9UM73); details: at 10 µM
[55] = biological target: AMP-activated protein kinase (AMPK) alpha-1/beta-1/gamma-1 (Homo sapiens) (UniProt P54619+Q9Y478+Q13131); details: at 10 µM
[56] = biological target: cAMP-dependent protein kinase catalytic subunit alpha (Homo sapiens) (UniProt P17612); details: at 10 µM
[57] = biological target: Protein kinase C alpha type (Homo sapiens) (UniProt P17252); details: at 10 µM
[58] = biological target: Protein kinase C beta type (Homo sapiens) (UniProt P05771); details: at 10 µM
[59] = biological target: Protein kinase C gamma type (Homo sapiens) (UniProt P05129); details: at 10 µM
[60] = biological target: Protein kinase C delta type (Homo sapiens) (UniProt Q05655); details: at 1 µM
[61] = biological target: Protein kinase C epsilon type (Homo sapiens) (UniProt Q02156); details: at 1 µM
[62] = biological target: Protein kinase C epsilon type (Homo sapiens) (UniProt Q02156); details: at 10 µM

Structure (SMILES): O=C1c2ccccc2-c2nc3nnnn3nc21
- residual activity [1]: 98%
- residual activity [2]: 89%
- residual activity [3]: 95%
- residual activity [4]: 96%
- residual activity [5]: 97%
- residual activity [6]: 90%
- residual activity [7]: 88%
- residual activity [8]: 101%
- residual activity [9]: 102%
- residual activity [10]: 93%
- residual activity [11]: 98%
- residual activity [12]: 94%
- residual activity [13]: 97%
- residual activity [14]: 91%
- residual activity [15]: 95%
- residual activity [16]: 90%
- residual activity [17]: 86%
- residual activity [18]: 95%
- residual activity [19]: 97%
- residual activity [20]: 103%
- residual activity [21]: 86%
- residual activity [22]: 92%
- residual activity [23]: 102%
- residual activity [24]: 85%
- residual activity [25]: 84%
- residual activity [26]: 92%
- residual activity [27]: 94%
- residual activity [28]: 94%
- residual activity [29]: 99%
- residual activity [30]: 85%
- residual activity [31]: 88%
- residual activity [32]: 88%
- residual activity [33]: 97%
- residual activity [34]: 90%
- residual activity [35]: 97%
- residual activity [36]: 84%
- residual activity [37]: 85%
- residual activity [38]: 98%
- residual activity [39]: 96%
- residual activity [40]: 97%
- residual activity [41]: 100%
- residual activity [42]: 90%
- residual activity [43]: 96%
- residual activity [44]: 92%
- residual activity [45]: 85%
- residual activity [46]: 96%
- residual activity [47]: 93%
- residual activity [48]: 94%
- residual activity [49]: 95%
- residual activity [50]: inactive: 100%
- residual activity [51]: 87%
- residual activity [52]: 92%
- residual activity [53]: 95%
- residual activity [54]: 96%
- residual activity [55]: 93%
- residual activity [56]: 82%
- residual activity [57]: 93%
- residual activity [58]: 93%
- residual activity [59]: 95%
- residual activity [60]: 91%
- residual activity [61]: 88%
- residual activity [62]: 89%
